# Where “and” joins values, the source holds several entries; their conditions need not be identical. Identical values can stand only once. The entries are a selection whose mix differs from that of the whole data set. Records with an inconclusive call do not appear. Some structures have more than one record in an assay (separate samples or runs), and their calls can disagree. Calls of active or inactive are those of the source. Rule for the calls: active = hit-call score of the fitted dose curve at least 0.9, where 1 is the maximum; inconclusive = response in the unintended direction; inactive = score below 0.9.
# Amino acid sequences for entries named in this document (tags omitted). A change or cut given only in a name is not applied to a line headed by its entry.
# UniProt P04406: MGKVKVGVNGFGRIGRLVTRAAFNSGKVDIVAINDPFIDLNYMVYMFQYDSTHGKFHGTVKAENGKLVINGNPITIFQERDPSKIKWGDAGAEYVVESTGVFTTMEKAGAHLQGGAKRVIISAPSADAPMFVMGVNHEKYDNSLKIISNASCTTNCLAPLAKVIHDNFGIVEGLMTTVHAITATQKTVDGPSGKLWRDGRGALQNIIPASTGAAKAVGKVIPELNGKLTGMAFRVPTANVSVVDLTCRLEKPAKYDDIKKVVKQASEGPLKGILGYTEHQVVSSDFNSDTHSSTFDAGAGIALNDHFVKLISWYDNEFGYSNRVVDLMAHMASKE
# UniProt Q9UNQ0: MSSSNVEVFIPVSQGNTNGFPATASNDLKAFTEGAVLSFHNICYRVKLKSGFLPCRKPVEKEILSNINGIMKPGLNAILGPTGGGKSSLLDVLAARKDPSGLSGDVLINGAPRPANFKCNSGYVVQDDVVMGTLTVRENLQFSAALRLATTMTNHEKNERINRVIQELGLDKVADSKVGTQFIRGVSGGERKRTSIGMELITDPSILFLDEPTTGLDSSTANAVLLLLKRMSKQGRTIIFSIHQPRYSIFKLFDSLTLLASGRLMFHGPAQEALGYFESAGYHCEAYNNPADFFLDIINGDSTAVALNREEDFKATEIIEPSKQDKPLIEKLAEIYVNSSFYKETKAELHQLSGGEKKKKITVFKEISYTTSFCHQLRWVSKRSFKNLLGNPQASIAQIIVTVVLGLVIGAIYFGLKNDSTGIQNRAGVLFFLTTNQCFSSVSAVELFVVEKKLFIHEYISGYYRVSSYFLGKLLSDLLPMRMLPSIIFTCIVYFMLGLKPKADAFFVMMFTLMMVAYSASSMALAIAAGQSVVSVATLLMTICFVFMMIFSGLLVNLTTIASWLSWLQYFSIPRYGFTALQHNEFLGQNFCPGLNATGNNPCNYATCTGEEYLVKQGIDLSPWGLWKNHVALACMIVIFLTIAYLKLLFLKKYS
# UniProt P20813: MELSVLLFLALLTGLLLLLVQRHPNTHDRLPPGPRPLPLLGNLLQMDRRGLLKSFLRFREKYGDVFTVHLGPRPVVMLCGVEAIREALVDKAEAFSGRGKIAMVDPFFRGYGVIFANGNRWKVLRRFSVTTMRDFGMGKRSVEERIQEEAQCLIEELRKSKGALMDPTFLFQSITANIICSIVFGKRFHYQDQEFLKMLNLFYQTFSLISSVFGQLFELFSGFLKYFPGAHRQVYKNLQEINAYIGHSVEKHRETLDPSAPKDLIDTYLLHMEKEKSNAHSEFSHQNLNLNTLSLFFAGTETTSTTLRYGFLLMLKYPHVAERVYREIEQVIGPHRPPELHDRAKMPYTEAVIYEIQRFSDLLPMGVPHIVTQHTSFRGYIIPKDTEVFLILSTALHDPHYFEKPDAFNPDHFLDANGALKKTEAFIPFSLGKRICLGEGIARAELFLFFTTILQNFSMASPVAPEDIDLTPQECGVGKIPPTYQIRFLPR
# UniProt P08684, whole entry, looked up: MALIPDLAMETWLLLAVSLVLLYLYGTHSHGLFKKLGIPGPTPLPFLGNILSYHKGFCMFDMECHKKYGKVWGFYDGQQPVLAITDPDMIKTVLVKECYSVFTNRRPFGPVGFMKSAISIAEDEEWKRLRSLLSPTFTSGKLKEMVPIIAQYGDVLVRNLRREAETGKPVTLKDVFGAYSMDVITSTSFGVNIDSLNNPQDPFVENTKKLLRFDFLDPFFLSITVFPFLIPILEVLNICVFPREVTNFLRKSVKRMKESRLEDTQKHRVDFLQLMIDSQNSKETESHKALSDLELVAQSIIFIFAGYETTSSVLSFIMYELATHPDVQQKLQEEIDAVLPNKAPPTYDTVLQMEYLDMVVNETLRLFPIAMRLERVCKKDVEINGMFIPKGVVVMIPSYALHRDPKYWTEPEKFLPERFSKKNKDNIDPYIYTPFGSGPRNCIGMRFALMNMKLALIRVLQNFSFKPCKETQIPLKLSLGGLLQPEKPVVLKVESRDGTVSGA
# UniProt P33261, whole entry, looked up: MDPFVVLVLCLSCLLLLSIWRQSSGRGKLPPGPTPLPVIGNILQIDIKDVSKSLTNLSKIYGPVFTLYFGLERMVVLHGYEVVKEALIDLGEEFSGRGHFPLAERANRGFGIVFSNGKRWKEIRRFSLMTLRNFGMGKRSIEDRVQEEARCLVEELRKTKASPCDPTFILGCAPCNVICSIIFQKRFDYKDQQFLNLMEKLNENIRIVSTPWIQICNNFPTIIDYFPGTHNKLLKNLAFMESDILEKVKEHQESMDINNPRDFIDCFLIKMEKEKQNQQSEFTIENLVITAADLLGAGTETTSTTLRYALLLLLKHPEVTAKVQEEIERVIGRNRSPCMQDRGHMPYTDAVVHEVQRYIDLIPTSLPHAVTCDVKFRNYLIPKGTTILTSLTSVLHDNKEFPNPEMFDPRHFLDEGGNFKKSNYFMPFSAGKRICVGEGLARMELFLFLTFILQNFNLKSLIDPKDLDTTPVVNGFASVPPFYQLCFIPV
# Key:
# [1] = read-out: Glyceraldehyde-3-phosphate dehydrogenase (Homo sapiens) (UniProt P04406); test: CLD_GAPDH_6hr: CellzDirect (CLD) Gene Expression Assay for Baseline Control (Glyceraldehyde 3-phosphate dehydrogenase) at 6 hours (AID 2283681);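 note: active means increased signal relative to DMSO vehicle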
# In short: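 GAPDH baseline-control readout from qNPA (S1 nuclease digestion, probe hybridization, chemiluminescence) in lysates of cultured human hepatocytes harvested 6 h post-dosing. Chemicals tested at multiple concentrations versus 0.2% DMSO vehicle; microscopy-based cytotoxicity flagged yes/no.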
# [2] = read-out: HMG-CoA synthase (HMGCS2), HMGCS2 (gene 3158); test: CLD_HMGCS2_6hr: CellzDirect (CLD) Gene Expression Assay for HMG-CoA synthase (HMGCS2) at 6 hours (AID 2283682);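 note: actives raise HMGCS2 transcript above the 0.2% DMSO vehicle baseline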
# In short: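 HMGCS2 transcript induction read by quantitative nuclease protection with chemiluminescence, 6 h after dosing of primary human hepatocytes. Baseline was 0.2% DMSO vehicle; phase-contrast morphology gave a yes/no cytotoxicity annotation.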
# [3] = read-out: xenobiotic metabolism (CYP1A2), CYP1A2 (gene 1544); test: CLD_CYP1A2_24hr: CellzDirect (CLD) Gene Expression Assay for xenobiotic metabolism (CYP1A2) at 24 hours (AID 2283683)
# In short: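 CYP1A2 mRNA induction measured by quantitative nuclease protection (chemiluminescent) in human primary hepatocytes 24 h after multi-concentration chemical dosing with daily fresh solutions. DMSO (0.2%) baseline; positive-direction fitting; morphology-based cytotoxicity noted.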
# [4] = read-out: ABC Transporter (ABCB1), ABCB1 (gene 5243); test: CLD_ABCB1_24hr: CellzDirect (CLD) Gene Expression Assay for ABC Transporter (ABCB1) at 24 hours (AID 2283684);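 for AC50: potency for increase in ABCB1 mRNA relative to DMSO vehicle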
# In short: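 ABCB1 mRNA induction versus 0.2% DMSO vehicle was read by qNPA chemiluminescence at 24 h. Cultured human hepatocytes from two donor preparations received daily fresh dosing, and phase-contrast cytotoxicity calls were annotated alongside the data.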
# [5] = read-out: Broad substrate specificity ATP-binding cassette transporter ABCG2 (Homo sapiens) (UniProt Q9UNQ0); test: CLD_ABCG2_24hr: CellzDirect (CLD) Gene Expression Assay for ABC Transporter (ABCG2) at 24 hours (AID 2283685)
# In short: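 ABCG2 mRNA induction, read as gain of chemiluminescent signal over 0.2% DMSO, was measured by quantitative nuclease protection at 24 h. Cultured human liver hepatocytes were given fresh dosing solutions of test chemicals at several concentrations each day.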
# [6] = read-out: Cytochrome P450 2B6 (Homo sapiens) (UniProt P20813); test: CLD_CYP2B6_24hr: CellzDirect (CLD) Gene Expression Assay for xenobiotic metabolism (CYP2B6) at 24 hours (AID 2283686)
# In short: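 qNPA chemiluminescent measurement of mRNA at 24 hours in human primary hepatocyte cultures from two donor preparations, with daily fresh dosing and 0.2% DMSO vehicle as baseline. Morphology-based cytotoxicity flagged yes/no.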
# [7] = read-out: Cytochrome P450 3A4 (Homo sapiens) (UniProt P08684); test: CLD_CYP3A4_24hr: CellzDirect (CLD) Gene Expression Assay for xenobiotic metabolism (CYP3A4) at 24 hours (AID 2283689)
# In short: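 CYP3A4 mRNA induction read by quantitative nuclease protection (chemiluminescence) 24 hr after dosing. Cultured human hepatocytes (two donor preparations) treated daily, vehicle 0.2% DMSO; phase-contrast morphology annotates cytotoxicity.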
# [8] = read-out: organic anion transporter (SLCO1B1), SLCO1B1 (gene 10599); test: CLD_SLCO1B1_24hr: CellzDirect (CLD) Gene Expression Assay for organic anion transporter (SLCO1B1) at 24 hours (AID 2283690)
# In short: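 SLCO1B1 mRNA induction read at 24 h by quantitative nuclease protection assay (chemiluminescence), analyzed against DMSO baseline. Human hepatocyte cultures from separate donors received fresh dosing solutions daily; vehicle 0.2% DMSO; cytotoxicity flagged by phase-contrast morphology.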
# [9] = read-out: Glyceraldehyde-3-phosphate dehydrogenase (Homo sapiens) (UniProt P04406); test: CLD_GAPDH_24hr: CellzDirect (CLD) Gene Expression Assay for Baseline Control (Glyceraldehyde 3-phosphate dehydrogenase) at 24 hours (AID 2283692)
# In short: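 GAPDH baseline-control readout: qNPA chemiluminescent mRNA signal in human primary hepatocytes harvested 24 h after daily dosing, normalised to 0.2% DMSO with positive fitting direction; cytotoxicity annotated by phase-contrast morphology.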
# [10] = read-out: sulfotransferase (SULT2A), SULT2A1 (gene 6822); test: CLD_SULT2A_24hr: CellzDirect (CLD) Gene Expression Assay for sulfotransferase (SULT2A) at 24 hours (AID 2283694);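 for AC50: potency for increased SULT2A1 mRNA level as induction over DMSO baseline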
# In short: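 mRNA is measured by qNPA: probe hybridisation, S1 nuclease digestion, chemiluminescence, in lysates from human primary hepatocytes harvested 24 h after daily dosing. Vehicle was 0.2% DMSO. Phase-contrast microscopy flagged cytotoxicity (yes/no).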
# [11] = read-out: ABC Transporter (ABCB1), ABCB1 (gene 5243); test: CLD_ABCB1_48hr: CellzDirect (CLD) Gene Expression Assay for ABC Transporter (ABCB1) at 48 hours (AID 2283695)
# In short: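 ABCB1 mRNA was measured by quantitative nuclease protection assay (chemiluminescence) 48 h after dosing. Human hepatocyte cultures from two separate donors received fresh dosing solutions daily for two days, with 0.2% DMSO as vehicle. Positive-direction fit against DMSO.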
# [12] = read-out: ABC Transporter (ABCB11), ABCB11 (gene 8647); test: CLD_ABCB11_48hr: CellzDirect (CLD) Gene Expression Assay for ABC Transporter (ABCB11) at 48 hours (AID 2283697)
# In short: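 Induction of ABCB11 mRNA relative to 0.2% DMSO, measured at 48 h by qNPA chemiluminescence. Cultured human hepatocytes (two donors) received fresh dosing solutions at several concentrations on two consecutive days.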
# [13] = read-out: Cytochrome P450 2B6 (Homo sapiens) (UniProt P20813); test: CLD_CYP2B6_48hr: CellzDirect (CLD) Gene Expression Assay for xenobiotic metabolism (CYP2B6) at 48 hours (AID 2283699);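 note: actives raise transcript level above DMSO so potency reflects induction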
# In short: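 CYP2B6 transcript induction, read by quantitative nuclease protection (S1 digestion, chemiluminescent detection) 48 h after dosing, is fitted upward against 0.2% DMSO. Cultured human liver primary cells, two donor preparations, received fresh chemical daily over multiple concentrations.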
# [14] = read-out: Cytochrome P450 2C19 (Homo sapiens) (UniProt P33261); test: CLD_CYP2C19_48hr: CellzDirect (CLD) Gene Expression Assay for xenobiotic metabolism (CYP1A2) at 48 hours (AID 2283700);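 note: fitted upward so actives raise CYP2C19 mRNA above the 0.2% DMSO vehicle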
# In short: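 CYP2C19 mRNA induction read by chemiluminescent quantitative nuclease protection assay after 48 h, with fresh compound added daily for two days to cultured human liver hepatocytes. Activity fitted upward against 0.2% DMSO vehicle.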
# [15] = CLD_ACTIN_48hr: CellzDirect (CLD) Gene Expression Assay for Baseline Control (Actin) at 48 hours (AID 2283702)
# In short: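 Background-control actin mRNA read by qNPA chemiluminescence at 48 h. Human hepatocyte cultures from two donors received fresh multi-concentration chemical doses daily for two days; 0.2% DMSO served as vehicle baseline.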
# [16] = read-out: xenobiotic metabolism (CYP1A2), CYP1A2 (gene 1544); test: CLD_CYP1A2_48hr: CellzDirect (CLD) Gene Expression Assay for xenobiotic metabolism (CYP1A2) at 48 hours (AID 2283703)
# In short: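 Cytotoxicity was flagged yes/no from morphology, while CYP1A2 transcript induction was detected by qNPA chemiluminescence after a 48-hour exposure. Human primary hepatocyte cultures from separate donors received fresh dosing solutions daily over two days, with 0.2% DMSO as vehicle and baseline.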
# [17] = read-out: Cytochrome P450 2C19 (Homo sapiens) (UniProt P33261); test: CLD_CYP2C19_24hr: CellzDirect (CLD) Gene Expression Assay for xenobiotic metabolism (CYP1A2) at 24 hours (AID 2283687);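 note: activity means mRNA induction above DMSO vehicle baseline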
# In short: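 CYP2C19 mRNA was quantified by qNPA chemiluminescence after 24 h of daily dosing of cultured human primary hepatocytes from two donors; vehicle was 0.2% DMSO, and increases over DMSO baseline were fitted.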
# [18] = read-out: alkyl and aryl transferase (GSTA2), GSTA2 (gene 2939); test: CLD_GSTA2_24hr: CellzDirect (CLD) Gene Expression Assay for alkyl and aryl transferase (GSTA2) at 24 hours (AID 2283693)
# In short: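 GSTA2 transcript levels were quantified by quantitative nuclease protection assay in primary human hepatocytes 24 h after daily dosing with fresh solutions at multiple concentrations; 0.2% DMSO vehicle as baseline, cytotoxicity flagged morphologically.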
# [19] = read-out: glucuronosyltransferase (UGT1A1), UGT1A1 (gene 54658); test: CLD_UGT1A1_24hr: CellzDirect (CLD) Gene Expression Assay for glucuronosyltransferase (UGT1A1) at 24 hours (AID 2283696)
# In short: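 UGT1A1 transcript induction was measured by quantitative nuclease protection assay (chemiluminescence) in human hepatocyte cultures 24 h after daily fresh dosing, with 0.2% DMSO as vehicle and baseline.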
# [20] = read-out: Cytochrome P450 3A4 (Homo sapiens) (UniProt P08684); test: CLD_CYP3A4_48hr: CellzDirect (CLD) Gene Expression Assay for xenobiotic metabolism (CYP3A4) at 48 hours (AID 2283698)
# In short: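 CYP3A4 induction read by qNPA chemiluminescence after 48 h, with fresh dosing solutions on consecutive days, in cultured human hepatocytes (two donors). Vehicle 0.2% DMSO as baseline; microscopy-based cytotoxicity annotated yes/no alongside data.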
smiles,measurement,setting,value
O=C1C2CC=CCC2C(=O)N1SC(Cl)(Cl)C(Cl)Cl (stereo not drawn),outcome,[1],inactive
same,outcome,[2],inactive
same,outcome,[3],inactive
same,outcome,[4],inactive
same,outcome,[5],inactive
same,outcome,[6],inactive
same,outcome,[7],inactive
same,outcome,[8],inactive
same,outcome,[9],inactive
same,outcome,[10],inactive
same,outcome,[11],inactive
same,outcome,[12],inactive
same,outcome,[13],inactive
same,outcome,[14],inactive
same,outcome,[15],inactive
same,outcome,[16],inactive
CC(C)OP(=S)(OC(C)C)SCCNS(=O)(=O)c1ccccc1,outcome,[2],inactive
same,AC50,[3],active: 14.5 µM and active: 3.34 µM and active: 5.55 µM
same,AC50,[4],active: 20 µM
same,outcome,[4],inactive
same,outcome,[5],inactive
same,AC50,[6],active: 6.94 µM and active: 814 nM and active: 2.27 µM
same,outcome,[17],inactive
same,AC50,[7],active: 9.47 µM and active: 1.9 µM
same,outcome,[8],inactive
same,outcome,[18],inactive
same,AC50,[10],active: 548 nM
same,outcome,[10],inactive
same,outcome,[11],inactive
same,AC50,[19],active: 10.1 µM and active: 1.9 µM and active: 1.99 µM
same,AC50,[20],active: 1.9 µM
same,AC50,[13],active: 1.9 µM and active: 468 nM and active: 940 nM
same,AC50,[16],active: 3.2 µM and active: 3.15 µM and active: 4.55 µM

# Source: PubChem BioAssay (EPA / NIEHS)
